Measured values reported in the Kinase Knowledgebase extract (Sharma et al. 2016).

By UniProt entry, the sequences of proteins in these tests, tags left out.
UniProt P00533, whole entry, looked up: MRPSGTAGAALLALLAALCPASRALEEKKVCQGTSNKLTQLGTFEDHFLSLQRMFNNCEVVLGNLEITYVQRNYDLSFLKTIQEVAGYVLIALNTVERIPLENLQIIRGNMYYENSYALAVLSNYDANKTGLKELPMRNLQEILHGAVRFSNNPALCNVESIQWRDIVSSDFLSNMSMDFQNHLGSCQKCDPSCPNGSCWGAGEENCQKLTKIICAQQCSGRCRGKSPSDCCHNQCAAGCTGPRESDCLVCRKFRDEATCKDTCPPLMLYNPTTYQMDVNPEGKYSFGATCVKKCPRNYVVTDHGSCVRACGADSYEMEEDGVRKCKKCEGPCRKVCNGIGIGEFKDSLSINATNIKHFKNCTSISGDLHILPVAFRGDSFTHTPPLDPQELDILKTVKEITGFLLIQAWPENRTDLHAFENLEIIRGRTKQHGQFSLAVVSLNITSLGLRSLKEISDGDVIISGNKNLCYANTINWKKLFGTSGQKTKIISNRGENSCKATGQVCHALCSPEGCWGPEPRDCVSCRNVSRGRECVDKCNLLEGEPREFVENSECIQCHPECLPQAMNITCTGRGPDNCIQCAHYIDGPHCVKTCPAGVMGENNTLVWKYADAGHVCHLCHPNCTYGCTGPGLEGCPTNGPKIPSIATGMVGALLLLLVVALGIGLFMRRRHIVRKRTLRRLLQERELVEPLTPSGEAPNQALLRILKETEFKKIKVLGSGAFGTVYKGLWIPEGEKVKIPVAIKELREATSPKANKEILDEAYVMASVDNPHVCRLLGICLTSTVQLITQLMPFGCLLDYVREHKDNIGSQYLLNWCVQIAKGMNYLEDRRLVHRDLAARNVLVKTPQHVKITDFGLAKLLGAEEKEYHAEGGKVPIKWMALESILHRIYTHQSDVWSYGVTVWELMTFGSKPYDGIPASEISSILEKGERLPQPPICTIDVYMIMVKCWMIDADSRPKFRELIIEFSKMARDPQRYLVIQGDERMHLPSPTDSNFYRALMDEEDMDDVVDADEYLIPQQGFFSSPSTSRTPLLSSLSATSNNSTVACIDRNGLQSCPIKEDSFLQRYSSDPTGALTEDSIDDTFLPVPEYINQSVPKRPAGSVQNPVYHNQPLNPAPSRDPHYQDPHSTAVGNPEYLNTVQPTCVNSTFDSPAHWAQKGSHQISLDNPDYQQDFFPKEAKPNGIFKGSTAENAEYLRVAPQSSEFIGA

Target: EGFR (UniProt P00533)

Row | SMILES | IC50 [nM]
1 | COc1cc2ncnc(Nc3cccc(F)c3)c2cc1OC | 60
2 | COc1cc2ncnc(Nc3cccc(Cl)c3)c2cc1OC | 2
